Tested on: human visceral preadipocytes
Conditions: read-out: cytotoxic IC50; each compound alone
Description: Human visceral preadipocytes were seeded in 96-well white clear bottom plates at 10,000 cells per well in 100 μl pre-adipocyte medium and incubated overnight at 37° C. 5% CO2. On the following day, adipogenic differentiation was induced by addition of 100 μl/well differentiation medium and incubation continued for 5 days. Adipogenic differentiation was verified by microscopic evaluation, addition of adipored reagents and fluorescent measurement at Ex485 nm/Em572 nm. […] Staurosporine (1 μM) and 0.2% DMSO were used as controls. Plates were incubated at 37° C. 5% CO2 for 2, 6 and 24 hours. Following incubation, cytotoxicity was measured using Cell Titer Glo 2.0 (Promega).
Test Item RZL-12 (1-300 μM) was prepared on the day of the testing as 150 mM stock solutions in DMSO. […]
Human visceral pre-adipocytes (HPrAD-vis): HPrAD-vis cells (Lonza cat #PT-5005) were thawed at 37° C. and transferred into 50 ml tubes containing pre-adipocytes PGM-2 growth medium (PBM-2, 10% FBS, 1-glutamine, GA-1000). […] After resuspension, cells were counted and seeded in T-75 and T25 flasks at a density of 9,000 cells/cm^2 ([…], 225,000 cells/T25 flask). […]
Cells were sub-cultured only once, as soon as they reached 70% confluence. […] Cells were then counted using a haemacytometer slide after being diluted 1:2 in trypan blue (SIGMA). […]

**Q.** For Collagenase, which IC50 is on record?
**A.** Its IC50 is 300 nM.

Reference: patent publication US20240041827A1, “COMPOSITIONS FOR THE TREATMENT OF FAT RELATED CONDITIONS AND DISORDERS” (priority 2020, published 2024)
